Measured values taken from patent publication US20060079463A1, “Anticancer compositions comprising methenamine” (priority 2003, published 2006).

Method: C. […] The amount of either tested drug for one kg mouse was prepared as 10 ml solution, and 10 micro-liters per gram of mouse were injected intraperitoneally, once or twice daily, for 10 consecutive days for the Kunming mice with Sarcoma S-180 and Hepatoma H22, and for 15 consecutive days for C57BL/6 mice with melanoma B16. 50% glucose, 30 ml/kg, was given by gavage to selected groups of mice receiving the tested drug 60 to 90 minutes before each injection. One group of mice received saline only while another group of mice received the glucose treatment without the tested drug; these groups served as the saline-only control and the glucose-only control, respectively. A third group of mice received intraperitoneal injection of cyclophosphamide (CTX), or 5-Fluorouracil (5FU), 25 to 50 mg/kg body weight, was included in some experiments as positive control. At the end of the experiment, mouse body weight was taken, and the Sarcoma S-180, or Hepatoma H22 tumors were dissected and weighted, while the tumor size of melanoma B16 was measured using a caliper. Melanoma B16 tumor volume was calculated using the following equation: Tumor volume=S*S*L*0.5, where S is the short diameter, and L stands for long diameter of the tumor according to Beck M T et al. (Cancer Research 63:3598, 2003).

SMILES | Animal growth retardation (mouse, in vivo) | General appearance of mice during administration (mouse, in vivo) | Toxicity (conclusion) (tumor-bearing mice, i.p. treatment) | Toxicity (conclusion) (mouse, in vivo, ip)
C1N2CN3CN1CN(C2)C3.O=C(O)C(O)c1ccccc1 (stereo not drawn) [MAIN, methenamine mandelate] | significant animal growth retardation | all mice looked healthy | slight toxicity | –
C1N2CN3CN1CN(C2)C3 [URIN, Methenamine] | no significant animal growth retardation | all mice looked healthy | – | no significant toxicity

Where two headings read alike, the source gives them in different places.
